# Test results published in patent US8536354B2, “Steroidal ligands and their use in gene switch modulation” (Intrexon Corporation, priority 2008, dated 2013).
# Amino acid sequences for entries named in this document (tags omitted). A change or cut given only in a name is not applied to a line headed by its entry.
# UniProt O77240: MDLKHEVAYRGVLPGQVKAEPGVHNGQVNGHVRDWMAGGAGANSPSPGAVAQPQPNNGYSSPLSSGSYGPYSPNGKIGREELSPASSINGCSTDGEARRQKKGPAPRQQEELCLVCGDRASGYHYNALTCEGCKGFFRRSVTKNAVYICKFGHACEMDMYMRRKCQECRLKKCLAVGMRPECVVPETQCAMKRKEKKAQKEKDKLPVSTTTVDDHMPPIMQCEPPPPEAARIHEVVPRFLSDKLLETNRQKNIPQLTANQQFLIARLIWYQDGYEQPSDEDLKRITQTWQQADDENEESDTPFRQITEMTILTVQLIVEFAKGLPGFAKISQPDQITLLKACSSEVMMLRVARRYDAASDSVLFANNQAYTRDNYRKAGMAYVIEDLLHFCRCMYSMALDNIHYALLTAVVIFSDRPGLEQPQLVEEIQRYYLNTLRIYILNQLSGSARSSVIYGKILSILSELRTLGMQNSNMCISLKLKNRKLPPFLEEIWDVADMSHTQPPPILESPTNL
# Target: substitution mutant CfEcR ligand binding domain (Choristoneura fumiferana, UniProt O77240)
# Settings: CfEcR N119F/V96T double mutant; for rel max FI (20E), CF-N119F/V96T: max fold induction at any concentration relative to 20E; for rel max FI (PoA), CF-N119F/V96T: max fold induction at any concentration relative to PoA; for EC50: read-out: EC50 (μM), CF-N119F/V96T, NIH3T3 cells, luciferase, 48 h, ligand 0.01-33 μM
SMILES,"rel max FI (20E), CF-N119F/V96T","rel max FI (PoA), CF-N119F/V96T",EC50
"COC1C[C@H]2C(=O)C=C3[C@H](CC[C@]4(C)[C@@H]([C@@](C)(O)C(CCC(C)(C)O)OC)CC[C@@]34OC)[C@@]2(C)CC1OC (stereo partly drawn) [20E-2,3,14,22-tetramethyl ether]",0.00,0.00,> 33 µM
"CO[C@H]1C[C@@]2(C)[C@@H](C[C@H]1O)C(=O)C=C1[C@@H]2CC[C@]2(C)[C@@H]([C@@](C)(O)[C@@H](CCC(C)(C)O)OC)CC[C@@]12O [20E-2,22-dimethyl ether]",0.01,0.00,> 33 µM
CO[C@H]1C[C@@]2(C)[C@@H](C[C@H]1O)C(=O)C=C1[C@@H]2CC[C@]2(C)[C@@H]([C@@](C)(O)[C@H](O)CCC(C)(C)O)CC[C@@]12O [20E-2-methyl ether],0.02,0.00,> 33 µM
"CO[C@@H]1C[C@H]2C(=O)C=C3[C@H](CC[C@]4(C)[C@@H]([C@@](C)(O)[C@@H](CCC(C)(C)O)OC)CC[C@@]34O)[C@@]2(C)C[C@@H]1O [20E-3,22-dimethyl ether]",0.27,0.06,> 20 µM
CO[C@@H]1C[C@H]2C(=O)C=C3[C@H](CC[C@]4(C)[C@@H]([C@@](C)(O)[C@H](O)CCC(C)(C)O)CC[C@@]34O)[C@@]2(C)C[C@@H]1O [20E-3-methyl ether],1.54,0.35,~10 µM
CO[C@H](CCC(C)(C)O)[C@](C)(O)C1CC[C@@]2(O)C3=CC(=O)C4C[C@@H](O)[C@@H](O)CC4(C)C3CCC12C (stereo partly drawn) [20E-22-methyl ether],0.53,0.12,~12 µM
